The test relates to AKT [pT308].

One may read the IC50 as the midpoint of a concentration-inhibition curve. A low value points to greater potency. Molecule `C(#Cc1n[nH]c2ccccc12)c1cccnc1` [Compound 9, 3-(pyridin-3-ylethynyl)-1H-indazole] came in with an IC50 of 23.5 µM.

The values above are taken from publication PMC3131451 (Journal of medicinal chemistry, 2010).
